Only a selection was taken, and hits are over-represented in it overall.
GIV-Gai inh: blocks GIV peptide binding to rat Galpha-i3; P08753; Galpha-i3/FITC-GIV peptide fluorescence polarization, 90 min; stronger effect = lower value; scaled: aluminum fluoride 0%, vehicle 100%; percent of control (FP), % (no concentration beside the values); 210,000 tested, 0.42% active; AID 1224905;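 active = replicate mean at 85% of control or lower, very high polarization wells dropped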;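 also: wells of about 15 µL received 100 nL stock; the first replicate is given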
HCMV UL50-53 inh: cytomegalovirus nuclear egress complex inhibition; HTRF UL50-UL53 interaction, normalized percent inhibition; inhibition, % (concentration not given with the values); hit rate 0.15% among 190,000; in the data active = inhibition above about 27%, passing the limit was not always enough
GIV-Gai FP conf: GIV-Galpha-i3 inhibition, FP confirmation | shares compounds with GIV-Gai inh | FITC-GIV peptide binding to Galphai3, fluorescence polarization; stronger effect = lower value | fluorescence polarization, mP at 100 µM | hit rate 38% among 580 | AID 1259350;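 active = inhibition score of 15 or more, meaning 100 minus mean polarization as percent of control over three replicates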
GIV-Gai AS conf: confirmation of inhibitors of GIV binding to human Galpha-i3; shares compounds with GIV-Gai inh; AlphaScreen Galphai3-GIV binding, purified proteins, 90 min; stronger effect = lower value; AlphaScreen counts at 100 µM; hit rate 39% among 580;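 active = inhibition score at or above a set limit, where the score is 100 minus the three-replicate mean percent of control signal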
* hit, by the source's call; . = no result.

SMILES | GIV-Gai inh | HCMV UL50-53 inh | others
CCOc1ccc(N2C(=O)NC(=O)/C(=C/c3cn(CC(=O)Nc4ccccc4)c4ccccc34)C2=O)cc1 | -4.9* | 1
COc1ccc(N2C(=O)NC(=O)/C(=C\c3cn(CC(=O)Nc4ccccc4)c4ccccc34)C2=O)cc1 | 89 | .
CN1C(=O)[C@]23CC4=CC=C[C@H](O)[C@H]4N2C(=O)[C@@]1(CO)SS3 | . | 55*
O=c1ccc2[nH]cc(C3=CCNCC3)c2[nH]1 | 107 | 5
C1=C(c2c[nH]c3ccccc23)CCNC1 | -23* | -26
CCc1cccc2c(/C=N/O)c[nH]c12 | . | -16
CCCCn1c(C)c(C(=O)OCC)c2cc(OC(=O)Cc3ccccc3)c3ccccc3c21 | 96 | 7
CN1C(=O)C(=Cc2ccc(OCc3c(F)cccc3Cl)cc2)C(=O)N(C)C1=O | 107 | 14
Cc1ccc(C=C(C#N)C#N)o1 | 104 | -65
N#CC(C#N)=Cc1ccc(-c2ccccc2)o1 | -0.4* | -19
N=C1SC2CS(=O)(=O)CC2N1Cc1ccccc1 (centres undefined) | 101 | .
CN1CCc2[nH]c(=S)c(C#N)c(-c3ccccc3)c2C1 | . | -30
CN1CCc2c(C#N)c(N)n(N)c(=S)c2C1 | -103* | -67
COc1cc(C=C2C(=O)NC(=O)NC2=O)ccc1OS(=O)(=O)c1ccccc1 | 89 | 60*
CCOC(=O)CSCCOc1ccc(C=C2C(=O)NC(=O)NC2=O)cc1OC | 98 | 60*
CCOC(=O)COc1ccc(/C=C2\C(=O)NC(=S)N(c3ccc(OC)cc3)C2=O)cc1OC | 102 | -32
COc1ccc(C=C2C(=O)NC(=O)NC2=O)cc1 | 97 | .
COc1ccc(N2CCN(C(=O)CN3CC=C(c4ccccc4)CC3)CC2)cc1 | . | -12
Cn1ccc(P(=O)(N2CCOCC2)N2CCOCC2)c1 | . | 0
O=C1CC(=O)N(C2CCCCC2)C(=O)N1 | 104 | -4
COC(=O)Cn1cc(C=C2C(=O)N(C)C(=O)N(C)C2=O)c2ccccc21 | -2.1* | -15
CCN1C(=O)NC(=O)/C(=C\c2cn(CC(=O)O)c3ccccc23)C1=O | 110 | -39
CCOc1cc(C=C2C(=O)N(C)C(=O)N(C)C2=O)cc(Cl)c1OCc1ccccc1 | 98 | -12
CNC(C)Cc1ccccn1 (centres undefined) | 102 | -11
Cn1c(=O)c2ncnnc2n(C)c1=O | 77* | 12 | GIV-Gai FP conf=58*;GIV-Gai AS conf=35976

The list continues:
SMILES | GIV-Gai inh | HCMV UL50-53 inh | others
CCOC(=O)c1c(N)c[nH]c1NCc1ccc(Cl)nc1 | . | -4
O=C1NC(=O)N(Cc2ccccc2)C(=O)/C1=C\c1ccccc1 | 15* | . | GIV-Gai FP conf=31*;GIV-Gai AS conf=14998*
O=C1NC(=O)N(Cc2ccccc2)C(=O)/C1=C/c1ccc(O)cc1 | 111 | 31
Cc1nn(CCC#N)c2c1P(=S)(N1CCCCC1)OC(c1ccccc1)=N2 (centres undefined) | . | -21
O=C1NC(=S)NC(=O)C1=Cc1ccco1 | 73* | 2 | GIV-Gai FP conf=57*;GIV-Gai AS conf=5695*
CN1C(=O)NC(=O)/C(=C/c2ccco2)C1=O | 100 | -2
CC12CC[C@H]3[C@@H](CCC4(O)C[C@H](O)CCC34/C=N\NC(=O)c3cccc(NC(=O)c4ccc(F)cc4)c3)C1(O)CCC2C1=CC(=O)OC1 (some centres undefined) | 105 | .
COc1ccccc1CCN(Cc1ccco1)Cc1ccco1 | 105 | .

High-throughput results deposited in PubChem by ICCB-Longwood Screening Facility, Harvard Medical School.
